Laboratory results taken from paper PMC10252891, “Pharmacometabolic Effects of Pteryxin and Valproate on Pentylenetetrazole-Induced Seizures in Zebrafish Reveal Vagus Nerve Stimulation” (Cells, 2023).
“And” between values parts separate entries of the source, which are not always exact repeats. Identical values can stand only once.

By UniProt entry, the sequences of proteins in these tests, tags left out. Where a name states a change or a piece, a line headed by the entry shows the natural chain unless it says otherwise.
UniProt Q01650: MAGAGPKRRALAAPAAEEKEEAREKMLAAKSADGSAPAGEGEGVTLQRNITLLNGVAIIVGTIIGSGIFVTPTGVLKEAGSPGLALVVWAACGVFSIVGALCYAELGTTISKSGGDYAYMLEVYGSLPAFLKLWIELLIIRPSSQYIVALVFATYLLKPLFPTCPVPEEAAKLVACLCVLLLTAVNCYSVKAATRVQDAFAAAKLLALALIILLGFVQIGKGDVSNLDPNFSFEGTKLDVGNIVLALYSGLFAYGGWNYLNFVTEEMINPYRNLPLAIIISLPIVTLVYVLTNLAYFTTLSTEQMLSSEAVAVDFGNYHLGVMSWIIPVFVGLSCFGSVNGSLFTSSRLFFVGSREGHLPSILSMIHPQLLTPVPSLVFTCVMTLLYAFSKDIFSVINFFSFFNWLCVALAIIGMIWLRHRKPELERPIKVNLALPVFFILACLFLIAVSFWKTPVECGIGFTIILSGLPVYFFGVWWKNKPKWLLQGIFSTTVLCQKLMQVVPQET

Experiments:
[1] = LC-MS/MS quantification of whole-body uptake in immersed zebrafish larvae
Description: After immersion larvae were plated in 1% BSA for 15 s and washed thoroughly by shaking to remove all compounds from the larvae surface. […] For quantification, six larvae were pooled before homogenization. Three experiments were carried out in independent days.
These were homogenized with the Ultrasonic Processor UP50H (Hielscher): 1 cycle—60% amplitude. The run consisted of two cycles of 15 s with a rest of 50 s in ice for each sample. […] To 100 µL of homogenate 200 µL of the internal standard (IS) Rolipram (Sigma Aldrich, Buchs, Switzerland) (20 ng/mL) for the positive MS experiment, and VPA d-6 (Sigma Aldrich, Buchs, Switzerland) (50 µg/mL) for the negative MS experiment were added. Samples were vortexed for 10 s and then centrifuged at 12,000 rpm for 10 min at 4 °C. After centrifugation, 150 µL of supernatant was transferred into LC-MS vials already containing 120 µL of MilliQ water. Then, 10 µL was injected into the LC-MS/MS system.
A hybrid triple quadrupole 4000 QTRAP mass spectrometer (AB Sciex Concord, ON, Canada) was used with a Shimadzu UFLC (Shimadzu Corporation, Kyoto, Japan) with a cooled auto-sampler. The sample temperature was maintained at 4 °C in the auto-sampler prior to analysis. The LC column was Synergi 4 µm Fusion-RP 80Å C18 50 × 2 mm, Phenomenex, maintained at 45 °C. The system was operated first in positive and after in negative mode with the same elution mobile phases and gradient method. Mobile phases were as follows: water with 0.1% formic acid (solvent A) and methanol with 0.1% formic acid (solvent B). […] The flow rate was 0.80 mL/min. Peaks were integrated, and the analyst software version 1.6.2 (AB Sciex Concord, ON, Canada) was used for quantification. […] Negative mode: Valproic acid m/z 143→143, (IS: Valproic Acid-d6 149→149).

[2] = target: T1, LAT1 (Homo sapiens, UniProt Q01650); experiment: [3H]-L-leucine uptake inhibition in MDST8-LAT1 cells; format: cell-based; conditions: preincubation 2 h, highest concentration 50 μM
T1 construct: expressed in transfected cells; host or cells: MDST8-LAT1 cells
Description: [3H]-L-Leucine uptake assay
[3H]-L-Leucine uptake assay was performed as previously described [Yan et al., 2021]. Cells were seeded in 96-well plates with opaque bottom (Corning, 353296) at 40-60% confluency, allowing them to attach for 48 hours in a fully supplemented media. Cells were preincubated with different concentrations of […]
PTX for 2 hours, then the cells were washed three times with pre-warmed Na+-free Hank's Balanced Salt […]
Solution (HBSS) containing 125 mM choline-Cl, 25 mM HEPES, 4.8 mM KCl, 1.2 mM MgSO4, 1.2 mM KH2PO4, 1.3 mM CaCl2 and 5.6 mM D-glucose (pH 7.4) and further incubated with the same solution for 7 minutes at 37 °C. [3H]-l-Leucine uptake was assessed in the same solution containing 10 nM “hot” [3H]-L-Leucine (60 Ci/mmol) (Anawa, 0140A-1) + 30 μM “cold” L-leucine. In case of 5 μM JPH203, the same procedure was followed without PTX preincubation. After 3 minutes, the solution was removed, and the cells were washed with ice-cold Na+-free HBSS to terminate the uptake. Cells were lysed with scintillation solvent MicroScint-20 (Perkin-Elmer Life Sciences, 6013621) and the radioactivity was measured with a scintillation counter (TopCount NXT, Perkin-Elmer Life Sciences).
*Yan R, Li Y, Müller J, Zhang Y, Singer S, Xia L, Zhong X, Gertsch J, Altmann KH, Zhou Q. Mechanism of substrate transport and inhibition of the human LAT1-4F2hc amino acid transporter. […]

[3] = set-up: method as in PMID 22102402; conditions: oral administration of 100 mg/kg; cited from earlier work
[4] = Pteryxin 20 µM, 5 min immersion
[5] = Pteryxin 20 µM, 30 min immersion
[6] = Pteryxin 20 µM, 1 h immersion, listed as Pteryxin

With pteryxin [PTX] the “concentration in larvae whole-body” value ([1]; PTX 20 µM, 1 h) was 4.28 ± 0.28 µg/g, the “metabolic stability in zebrafish larvae” value ([1]; PTX 20 µM, whole-body concentration after 18 h not strongly decreased) was “metabolically stable” and the “Measured concentration in larvae whole-body” value ([1]; Pteryxin 1 µM, 1 h immersion) was 468.7 ± 44.1 ng/g. The “% Absorbed” value ([1]; Pteryxin 10 µM, 1 h immersion) was 32.2%, the “Measured concentration in larvae whole-body” value ([1]; Pteryxin 10 µM, 1 h immersion) was 1243.3 ± 201.3 ng/g and 3.2 ± 0.5 µM and the “% Absorbed” value [1, 4] was 10.1%. For the same substance, the “Measured concentration in larvae whole-body” value [1, 4] was 820.0 ± 46.3 ng/g and 2.1 ± 0.1 µM, the “% Absorbed” value [1, 5] was 32.7% and the “Measured concentration in larvae whole-body” value [1, 5] was 2530.0 ± 105.4 ng/g and 6.5 ± 0.3 µM. For the same substance, the “% Absorbed” value ([1]; Pteryxin 20 µM, 1 h immersion) was 55%, the “% Absorbed” value [1, 6] was 55.4% and the “Measured concentration in larvae whole-body” value [1, 6] was 4280.0 ± 284.8 ng/g and 11.1 ± 0.7 µM. The “% Absorbed” value ([1]; Pteryxin 20 μM, 18 h immersion) was 44.0%, the “Measured concentration in larvae whole-body” value ([1]; Pteryxin 20 μM, 18 h immersion) was 3406.7 ± 213.6 ng/g and 8.8 ± 0.5 µM and the Measured concentration ([1]; Pteryxin 20 μM, without larvae) was 20.5 ± 0.1 µM. The IC50 [2] was no less than 50 µM, the “Cmax in mouse plasma” value [3] was 976.04 ng/mL and the “estimated t1/2” value [3] was 1.46 h. For the same substance, the “time of Cmax” value [3] was 120 min.
